Reference: ChEMBL document CHEMBL4043296 (J Med Chem, 2018)

Sequences of proteins named here, by UniProt entry; tags and fusion partners are left off.
UniProt P08173, whole entry: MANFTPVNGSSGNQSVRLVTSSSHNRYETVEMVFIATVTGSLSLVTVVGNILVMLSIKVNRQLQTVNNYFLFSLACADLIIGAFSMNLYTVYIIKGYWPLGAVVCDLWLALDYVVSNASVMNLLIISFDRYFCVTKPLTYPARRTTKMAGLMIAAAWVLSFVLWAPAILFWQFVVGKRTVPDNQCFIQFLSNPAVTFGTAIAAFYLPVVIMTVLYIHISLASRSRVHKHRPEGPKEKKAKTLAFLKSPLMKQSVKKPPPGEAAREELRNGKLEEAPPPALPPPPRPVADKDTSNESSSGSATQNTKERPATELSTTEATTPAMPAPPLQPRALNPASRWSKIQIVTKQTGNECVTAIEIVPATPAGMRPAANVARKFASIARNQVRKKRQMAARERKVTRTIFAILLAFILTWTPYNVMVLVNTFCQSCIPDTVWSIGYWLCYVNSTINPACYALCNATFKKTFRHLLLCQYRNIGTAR

Tests used:
[1] = molecular target: T1, Muscarinic acetylcholine receptor M4 (Homo sapiens, UniProt P08173); test: Antagonist activity at human SP/Myc epitope-tagged muscarinic M4 receptor expressed in HEK293T cells assessed as inhibition of carbachol-induced RLuc8-fused Galphaq activation preincubated for 15 mins followed by carbachol induction measured after 2 mins by BRET assay; assay type: cell-based, HEK-293T
[2] = molecular target: T1, Muscarinic acetylcholine receptor M4; test: Antagonist activity at human SP/Myc epitope-tagged muscarinic M4 receptor expressed in HEK293T cells assessed as inhibition of carbachol-induced mVenus-fused beta-arrestin2 recruitment preincubated for 15 mins followed by carbachol induction measured after 2 mins by BRET assay; assay type: cell-based, HEK-293T

CN1[C@@H]2C[C@@H](OC(=O)[C@H](CO)c3ccccc3)C[C@H]1[C@@H]1O[C@H]12
pIC50 [1]: 8.27
pIC50 [2]: 9.24

pIC50: −log10 of the molar value.
